Data from patent publication US9617267B2, “Compounds and methods for kinase modulation, and indications therefor” (Plexxikon Inc., priority 2009, dated 2017).

By UniProt entry, the sequences of proteins in these tests, tags left out.
UniProt P11712, whole entry: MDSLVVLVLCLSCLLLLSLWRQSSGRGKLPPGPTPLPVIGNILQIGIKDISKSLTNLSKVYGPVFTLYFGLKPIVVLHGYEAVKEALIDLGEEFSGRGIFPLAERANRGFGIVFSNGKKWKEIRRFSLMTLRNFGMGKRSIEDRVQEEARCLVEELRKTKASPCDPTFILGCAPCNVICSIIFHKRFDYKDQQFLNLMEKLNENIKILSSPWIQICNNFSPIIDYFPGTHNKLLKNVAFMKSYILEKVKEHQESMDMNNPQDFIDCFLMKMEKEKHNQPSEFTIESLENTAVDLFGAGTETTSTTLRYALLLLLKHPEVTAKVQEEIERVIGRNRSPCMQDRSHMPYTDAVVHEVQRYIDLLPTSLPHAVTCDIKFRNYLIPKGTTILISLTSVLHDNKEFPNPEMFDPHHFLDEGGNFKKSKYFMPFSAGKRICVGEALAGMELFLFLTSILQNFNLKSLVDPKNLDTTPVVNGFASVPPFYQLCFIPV
UniProt P08684, whole entry: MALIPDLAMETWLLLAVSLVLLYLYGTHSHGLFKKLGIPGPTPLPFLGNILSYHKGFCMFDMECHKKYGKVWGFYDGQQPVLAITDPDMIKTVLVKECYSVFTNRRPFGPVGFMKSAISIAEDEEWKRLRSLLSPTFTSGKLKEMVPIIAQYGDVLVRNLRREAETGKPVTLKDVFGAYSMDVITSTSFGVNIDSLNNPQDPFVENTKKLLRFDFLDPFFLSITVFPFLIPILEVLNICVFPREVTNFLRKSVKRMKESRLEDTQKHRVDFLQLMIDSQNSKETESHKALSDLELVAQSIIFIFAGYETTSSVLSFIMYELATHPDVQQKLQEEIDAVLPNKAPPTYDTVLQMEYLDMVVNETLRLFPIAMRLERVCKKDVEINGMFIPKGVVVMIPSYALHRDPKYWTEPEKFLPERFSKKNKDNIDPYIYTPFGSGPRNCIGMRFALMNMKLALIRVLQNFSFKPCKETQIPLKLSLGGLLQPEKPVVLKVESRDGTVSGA
UniProt P05177, whole entry: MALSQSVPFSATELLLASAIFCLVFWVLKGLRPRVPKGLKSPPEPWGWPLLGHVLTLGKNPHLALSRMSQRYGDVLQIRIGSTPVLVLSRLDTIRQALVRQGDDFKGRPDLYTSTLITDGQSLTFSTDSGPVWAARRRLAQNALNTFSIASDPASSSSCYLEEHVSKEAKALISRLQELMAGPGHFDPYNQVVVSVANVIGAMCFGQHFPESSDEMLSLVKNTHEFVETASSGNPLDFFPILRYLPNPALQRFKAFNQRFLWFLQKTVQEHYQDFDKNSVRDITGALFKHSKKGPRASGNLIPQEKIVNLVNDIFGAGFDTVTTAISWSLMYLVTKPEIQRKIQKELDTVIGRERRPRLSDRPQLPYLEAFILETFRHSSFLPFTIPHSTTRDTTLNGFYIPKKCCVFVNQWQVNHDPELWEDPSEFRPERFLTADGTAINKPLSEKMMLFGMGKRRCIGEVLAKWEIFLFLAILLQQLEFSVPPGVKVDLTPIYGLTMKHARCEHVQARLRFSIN

Assays:
CYP2C9 = CYP2C9 (Homo sapiens (Human), UniProt P11712); test: CYP enzyme inhibition, fluorescent substrate (MFC); settings: read-out: Cyp IC50 2C9
Description: (§1) CYP (Cytochrome P450) enzymes are the major drug metabolizing enzymes present in the liver. The inhibition of CYP enzyme activity (IC50) for each of CYP1A2, CYP2C19, CYP2C9, CYP2D6, CYP3A4(BFC) and CYP3A4(BQ) is determined for compounds, where inhibition of metabolism of a known substrate leads to a decrease in the fluorescence of the metabolized product. The fluorescence of the product is monitored as a function of compound concentration.
(§2) Compounds are dissolved in dimethyl sulfoxide to a concentration of 100 mM. These are diluted 1 μL into 82 μL of acetonitrile. […] These are then serially diluted 1:1 (160 μL to 160 μL co-factor mix) for a total of 10 points. A 10 μL aliquot of this final mixture is dispensed into 384 well assay plates and incubated for 10 minutes at 37° C. […] Assay plates are incubated at 37° C. […] The signal versus compound concentration is used to determine the IC50. The enzymes and substrates for this assay are obtained from BD Biosciences.

CYP3A4(BFC) = CYP3A4(BFC) (Homo sapiens (Human), UniProt P08684); test: CYP enzyme inhibition, fluorescent substrate BFC; settings: read-out: Cyp IC50 3A4(BFC)
Description: as §1, §2

CYP1A2 = CYP1A2 (Homo sapiens (Human), UniProt P05177); test: CYP enzyme inhibition, fluorescent substrate (CEC); settings: read-out: Cyp IC50 1A2
Description: as §1
Compounds are dissolved in dimethyl sulfoxide to a concentration of 100 mM. These are diluted 1 μL into 82 μL of acetonitrile. An 11 μL aliquot of this solution is then added to 204 μL of cofactor mix (1.3% NADPH Regeneration system Solution A, 1.04% NADPH Regeneration system Solution B from BD Biosciences, 5% acetonitrile and 0.05% dimethyl sulfoxide). These are then serially diluted 1:1 (160 μL to 160 μL co-factor mix) for a total of 10 points. A 10 μL aliquot of this final mixture is dispensed into 384 well assay plates and incubated for 10 minutes at 37° C. […] (CYP1A2-15 min; CYP2C9-45 min; CYP2C19, 2D6 and 3A4-30 min) and read in a Tecan Safire 2 plate reader (CYP1A2, 2C19 and 3A4 409 ex/460 em; CYP2C9 and 2D6 409 ex/530 em). […]

IC50 (CYP2C9) [µM] | Structure (SMILES) | IC50 (CYP3A4(BFC)) [µM] | IC50 (CYP1A2) [µM]
> 10 | CCCS(=O)(=O)Nc1ccc(F)c(C(=O)c2c[nH]c3nccc(NC4CCOCC4)c23)c1F [P-2013, Propane-1-sulfonic acid {2,4-difluoro-3-[4-(tetrahydro-pyran-4-ylamino)-1H-pyrrolo[2,3-b]pyridine-3-carbonyl]-phenyl}-amide] | – | –
– | CCCS(=O)(=O)Nc1ccc(F)c(C(=O)c2c[nH]c3ncnc(CC(C)C)c23)c1F [P-1014, Propane-1-sulfonic acid [2,4-difluoro-3-(4-isobutyl-7H-pyrrolo[2,3-d]pyrimidine-5-carbonyl)-phenyl]-amide] | > 10 | > 10
